Here are results for one molecule from article PMC10229426, “An optimized bioluminescent substrate for non-invasive imaging in the brain” (Nature Chemical Biology, 2023).

Sequences of proteins named here, by UniProt entry; tags and fusion partners are left off.
UniProt P08659, whole entry: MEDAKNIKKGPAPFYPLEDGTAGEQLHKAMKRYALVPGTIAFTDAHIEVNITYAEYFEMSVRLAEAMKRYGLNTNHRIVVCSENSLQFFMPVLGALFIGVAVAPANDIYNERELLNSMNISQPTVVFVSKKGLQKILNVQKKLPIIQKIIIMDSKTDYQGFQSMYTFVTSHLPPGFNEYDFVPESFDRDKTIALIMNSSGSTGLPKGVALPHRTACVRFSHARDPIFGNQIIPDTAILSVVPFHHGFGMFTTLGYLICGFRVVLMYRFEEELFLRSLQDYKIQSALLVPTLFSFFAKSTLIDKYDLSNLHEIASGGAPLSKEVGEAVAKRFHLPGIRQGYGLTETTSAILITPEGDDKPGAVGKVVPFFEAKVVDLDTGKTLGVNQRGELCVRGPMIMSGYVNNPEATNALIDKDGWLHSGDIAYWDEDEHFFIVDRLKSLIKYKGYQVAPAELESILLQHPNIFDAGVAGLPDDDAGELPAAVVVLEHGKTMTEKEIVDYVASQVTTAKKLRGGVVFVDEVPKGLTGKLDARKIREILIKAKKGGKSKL

This test deals with T1, FLuc (Photinus pyralis, UniProt P08659).
T1 construct: expressed in transfected cells; host or cells: transgenic mice with CAG-LSL-FLuc at the H11 locus, crossed to Cre driver lines
Nature of the test: Bioluminescence imaging of transgenic mice expressing FLuc in the brain. The following applies: FLuc expressed under Camk2a-cre control. Type of test: in vivo, mouse.

Consider `O=C(O)[C@H]1CSC(c2nc3ccc(O)cc3s2)=N1` [D-luciferin], for which the brain signal distribution result is on record as “expected forebrain-specific signal”.
